Measured values reported in ChEMBL document CHEMBL4414598, “Trifluorinated Pyrimidine-Based A2B Antagonists: Optimization and Evidence of Stereospecific Recognition” (J Med Chem, 2019).

Key:
[1] = biological target: T1, Adenosine receptor A2b (Homo sapiens) (UniProt P29275); assay: Displacement of [3H]DPCPX from human recombinant A2B receptor expressed in human HEK293 cell membranes at 1 uM incubated for 30 mins by radioligand binding competition assay relative to control
T1 sequence (whole entry): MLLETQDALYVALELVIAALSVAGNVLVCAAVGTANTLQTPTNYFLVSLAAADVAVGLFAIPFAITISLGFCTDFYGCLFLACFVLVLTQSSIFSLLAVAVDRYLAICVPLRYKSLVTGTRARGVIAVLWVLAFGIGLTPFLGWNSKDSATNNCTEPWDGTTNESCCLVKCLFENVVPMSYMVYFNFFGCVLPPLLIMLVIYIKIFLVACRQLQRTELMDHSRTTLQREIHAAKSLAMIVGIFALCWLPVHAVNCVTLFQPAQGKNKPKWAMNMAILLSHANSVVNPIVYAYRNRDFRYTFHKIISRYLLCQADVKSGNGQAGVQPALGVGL

Homo sapiens [2] = organism: Homo sapiens; assay: Selectivity index, ratio of Ki for displacement of [3H]DPCPX from human recombinant A1 receptor expressed in CHOA1 cell membranes incubated for 60 mins by radioligand binding competition assay to Ki for displacement of [3H]DPCPX from human recombinant A2B receptor expressed in human HEK293 cell membranes at 1 uM incubated for 30 mins by radioligand binding competition assay
Homo sapiens [3] = organism: Homo sapiens; assay: Selectivity index, ratio of Ki for displacement of [3H]ZM241385 from human recombinant A2A receptor expressed in human HeLa cell membranes incubated for 30 mins by radioligand binding competition assay to Ki for displacement of [3H]DPCPX from human recombinant A2B receptor expressed in human HEK293 cell membranes at 1 uM incubated for 30 mins by radioligand binding competition assay
Homo sapiens [4] = organism: Homo sapiens; assay: Selectivity index, ratio of Ki for displacement of [3H]NECA from human A3 receptor expressed in human HeLa cell membranes incubated for 180 mins by radioligand binding competition assay to Ki for displacement of [3H]DPCPX from human recombinant A2B receptor expressed in human HEK293 cell membranes at 1 uM incubated for 30 mins by radioligand binding competition assay

| SMILES | inhibition [1] | Ratio Ki (Homo sapiens [2]) | Ratio Ki (Homo sapiens [3]) | Ratio Ki (Homo sapiens [4]) |
| --- | --- | --- | --- | --- |
| CC1=C(C(=O)OCC(F)(F)F)[C@H](c2ccco2)n2c(nc3ccccc32)N1 | 22% | – | – | – |
| CCOC(=O)C1=C(C(F)(F)F)Nc2nc3ccccc3n2[C@H]1c1ccoc1 | 19% | – | – | – |
| CC1=C(C(=O)OC(C)C(F)(F)F)C(c2ccco2)n2c(nc3ccccc32)N1 (racemic) | – | > 1000 | > 1000 | > 1000 |
| CCOC(=O)C1=C(C(F)(F)F)Nc2nc3ccccc3n2C1c1ccoc1 (racemic) | – | > 1000 | > 1000 | > 1000 |
| CC1=C(C(=O)OCC(F)(F)F)C(c2ccco2)n2c(nc3ccccc32)N1 (racemic) | – | > 1000 | > 1000 | > 1000 |
